By UniProt entry, the sequences of proteins in these tests, tags left out.
UniProt O75762, whole entry: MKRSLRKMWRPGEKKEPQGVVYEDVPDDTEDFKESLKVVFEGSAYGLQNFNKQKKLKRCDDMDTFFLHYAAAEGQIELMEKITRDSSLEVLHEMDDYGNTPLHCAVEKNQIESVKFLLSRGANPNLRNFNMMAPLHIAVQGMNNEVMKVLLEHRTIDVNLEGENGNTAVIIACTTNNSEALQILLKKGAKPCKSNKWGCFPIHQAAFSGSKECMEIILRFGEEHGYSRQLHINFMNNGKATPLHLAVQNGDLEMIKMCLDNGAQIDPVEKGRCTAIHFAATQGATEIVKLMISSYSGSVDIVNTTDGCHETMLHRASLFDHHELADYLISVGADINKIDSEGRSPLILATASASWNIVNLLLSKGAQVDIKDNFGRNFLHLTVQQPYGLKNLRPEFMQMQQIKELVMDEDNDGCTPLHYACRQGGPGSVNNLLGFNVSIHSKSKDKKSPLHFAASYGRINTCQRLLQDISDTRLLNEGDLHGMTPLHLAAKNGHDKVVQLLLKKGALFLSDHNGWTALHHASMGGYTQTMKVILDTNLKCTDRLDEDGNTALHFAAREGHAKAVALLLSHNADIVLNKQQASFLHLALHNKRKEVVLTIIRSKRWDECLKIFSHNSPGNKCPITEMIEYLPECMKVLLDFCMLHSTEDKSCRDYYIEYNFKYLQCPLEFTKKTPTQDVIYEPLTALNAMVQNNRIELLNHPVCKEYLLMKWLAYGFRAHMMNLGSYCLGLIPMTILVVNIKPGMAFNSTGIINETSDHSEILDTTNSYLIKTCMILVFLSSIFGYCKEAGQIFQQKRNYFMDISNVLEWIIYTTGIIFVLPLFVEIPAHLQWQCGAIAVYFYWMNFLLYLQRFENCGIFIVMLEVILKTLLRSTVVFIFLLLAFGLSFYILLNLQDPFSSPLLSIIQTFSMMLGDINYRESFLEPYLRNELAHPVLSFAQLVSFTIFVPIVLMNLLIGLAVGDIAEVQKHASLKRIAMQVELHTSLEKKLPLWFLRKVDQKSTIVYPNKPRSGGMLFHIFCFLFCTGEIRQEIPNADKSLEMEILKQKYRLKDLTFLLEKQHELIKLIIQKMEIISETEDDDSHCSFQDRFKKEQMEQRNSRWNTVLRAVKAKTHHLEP
UniProt Q8NER1, whole entry: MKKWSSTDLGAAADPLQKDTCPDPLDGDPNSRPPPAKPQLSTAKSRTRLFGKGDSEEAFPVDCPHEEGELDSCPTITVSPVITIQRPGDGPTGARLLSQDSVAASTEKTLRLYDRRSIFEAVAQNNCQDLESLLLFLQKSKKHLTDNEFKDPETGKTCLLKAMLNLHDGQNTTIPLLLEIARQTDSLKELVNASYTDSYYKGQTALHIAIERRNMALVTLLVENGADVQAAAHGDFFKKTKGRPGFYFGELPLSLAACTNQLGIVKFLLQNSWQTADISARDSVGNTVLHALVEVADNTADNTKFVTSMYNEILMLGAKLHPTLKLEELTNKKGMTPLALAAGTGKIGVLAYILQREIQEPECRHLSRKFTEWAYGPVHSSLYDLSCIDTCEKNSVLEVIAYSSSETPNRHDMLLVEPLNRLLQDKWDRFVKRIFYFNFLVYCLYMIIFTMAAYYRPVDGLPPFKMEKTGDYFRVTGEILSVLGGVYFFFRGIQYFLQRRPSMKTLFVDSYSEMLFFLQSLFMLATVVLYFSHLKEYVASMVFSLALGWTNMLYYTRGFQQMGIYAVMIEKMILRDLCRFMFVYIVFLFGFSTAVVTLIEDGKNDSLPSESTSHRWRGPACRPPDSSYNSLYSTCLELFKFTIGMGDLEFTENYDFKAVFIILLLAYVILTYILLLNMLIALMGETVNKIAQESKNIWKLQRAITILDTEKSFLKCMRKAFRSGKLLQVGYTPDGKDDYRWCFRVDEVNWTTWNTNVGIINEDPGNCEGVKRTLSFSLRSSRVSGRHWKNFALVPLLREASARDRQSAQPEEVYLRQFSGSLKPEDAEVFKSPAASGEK

In patent publication US20170000702A1, “PERSONAL CARE COMPOSITIONS COMPRISING A SENSATE” (The Gillette Park, priority 2015, published 2017):

Experiments:
Format in all cases: cell-based
human TRPA1 [1] = target: T1, human TRPA1 (Homo sapiens, UniProt O75762); assay: Pre-Incubation Test Method, TRPA1 (FLIPR intracellular calcium, AITC activator)
T1 construct: expressed in transfected cells; host or cells: HEK-293
Method: (§1) The Pre-Incubation Test and Direct Addition Test Methods, as defined herein, can be conducted on either TRPV1 or TRPA1 receptors.
(§2) Pre-Incubation Test Method: First, the intracellular calcium ion (Ca^+2) levels in TRPV1 and TRPA1 receptors is measured. […] Cells are detached with addition of 10 ml of PBS (phosphate buffered saline) by hand shaking gently. Cells are transferred to a 50 ml tube and centrifuged at 850 rpm for 3 minutes to remove PBS. After centrifugation, a pellet of cells is formed in the bottom of the tube separating them from the supernatant solution. […] Fluo-4 is a fluorescent dye used for quantifying cellular Ca^2+ concentrations in the 100 nM to 1 microM range. […]
(§3) The pellet cells are re-suspended in 10 ml assay buffer and 90 μl aliquots (˜50,000 cells) per well delivered to a 96-well assay plate containing 10 μl of test compounds (1 mM in assay buffer, final concentration 100 μM) or buffer control and incubated at room temperature for 30 minutes. […] Then 20 μl of the activators [1.8 μM Capsaicin (final concentration 300 nM) for TRPV1 or 300 μM AITC (final concentration 50 μM) for TRPA1 is added by FLIPR automatically and fluorescence recorded immediately.

human TRPA1 [2] = target: T1, human TRPA1; assay: Direct Addition Test Method, TRPA1 (FLIPR intracellular calcium)
Method: as §1, §2
as §3, with “immediately. […]” for “immediately.”

human TRPV1 [3] = target: T2, human TRPV1 (Homo sapiens, UniProt Q8NER1); assay: Direct Addition Test Method, TRPV1 (FLIPR intracellular calcium)
T2 construct: expressed in transfected cells; host or cells: HEK-293
Method: as §1, §2
as §3, with “immediately. […]” for “immediately.”

human TRPV1 [4] = target: T2, human TRPV1; assay: Pre-Incubation Test Method, TRPV1 (FLIPR intracellular calcium, capsaicin activator)
Method: as §1, §2, §3

SMILES: CC(=O)CCC=C(C)C [6-Methyl-5-hepten-2-one, 6-methyl-5-hepten-2-one]
- Pre-incubation % Regulation (human TRPA1 [1]): −1.44%
- Direct Addition % Regulation (human TRPA1 [2]): 0.49%
- Direct Addition % Regulation (human TRPV1 [3]): −0.3%
- Pre-incubation % Regulation (human TRPV1 [4]): −3.18%
